Assay results: the supplement of paper PMC9942566
± gives the standard deviation of the averaged measurements. Only a part is listed here, and it is no random draw.

tested on: Serratia marcescens K904 PosmB-luxCDABE reporter (pMQ747); assay: PosmB-lux reporter fold induction (RLU/OD600 relative to no-compound control), highest over Biolog concentrations; higher = stronger reporter activation; conditions: Biolog plate: PM18; well positions: D5-8; ΔrcsB mutant CMS5177; 4 h
Method: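 Serratia marcescens K904 (wild type) or its isogenic ΔrcsB mutant, carrying the Rcs-dependent PosmB-luxCDABE reporter plasmid pMQ747, was grown in LB at OD600 0.1 in Biolog Phenotype MicroArray plates PM11-20 for 4 h at 30-32°C. Each compound is present at 3-4 proprietary concentrations (not stated); per the Fig. S1 legend the value given is the highest fold over those wells. Three independent trials.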

Q: Which “PosmB-lux reporter fold induction” value does the source give for `[O-][Br+2]([O-])O` [sodium bromate] here?
A: 0.962 ± 0.62
